This is a selection; strong and weak results do not stand in their true shares. The source made the active and inactive calls. No stated cut-off is given here; in the data, active means inhibition above about 45% (passing the limit was not always enough); inconclusive means no clear call, values can overlap the other calls.
Target: Ubiquitin-conjugating enzyme E2 N (Homo sapiens) (UniProt P61088)
Assay: UBC13 polyubiquitin chain formation inhibitors, primary screen, biochemical, TR-FRET, uHTS (AID 485273)
Details: at 20 µM, stronger effect = higher value

The chains behind the UniProt entries cited, without tags or fusion partners. Where a name states a change or a piece, a line headed by the entry shows the natural chain unless it says otherwise.
UniProt P61088: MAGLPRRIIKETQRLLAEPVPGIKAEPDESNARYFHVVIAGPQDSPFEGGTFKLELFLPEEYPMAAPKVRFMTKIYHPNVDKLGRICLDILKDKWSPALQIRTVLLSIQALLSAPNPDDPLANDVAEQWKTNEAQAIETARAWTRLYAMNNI

Row | Compound | inhibition
1 | CCC(C)N(CC(C)C)C(=S)SC(NC(C)=O)C(Cl)(Cl)Cl (stereo not drawn) | inactive: 4.5%
2 | O=C(OC1CN2CCC1CC2)c1cccc([N+](=O)[O-])c1 (stereo not drawn) | inactive: 0.6%
3 | CCOC(=O)c1ccc(NC(=O)C(C)(CCl)SC)cc1 (stereo not drawn) | inactive: -1.6%
4 | O=C(COc1ccccc1)OC1CN2CCC1CC2 (stereo not drawn) | inactive: -9.1%
5 | O=C(Nc1ccncc1[N+](=O)[O-])c1ccc([N+](=O)[O-])cc1[N+](=O)[O-] | inactive: -1.2%
6 | COP1(=S)c2c(C)nn(CCC#N)c2N=C(c2ccc(F)cc2)N1C (stereo not drawn) | inactive: 2.4%
7 | Cc1cc(SC(NC=O)C(Cl)(Cl)Cl)ncn1 (stereo not drawn) | inactive: 3.7%
8 | O=P(Nc1ccccn1)(c1cccc2ccccc12)c1cccc2ccccc12 | inactive: -4%
9 | CCOC(=O)Nc1cccc([As](=O)(O)O)c1 | inactive: 2.2%
10 | CCCCOc1ccc(C(=O)NCC2(N3CCCCC3)CCCCC2)cc1OC | inactive: 8.1%
11 | Cc1cc(SC(NC(=O)c2ccccc2)C(Cl)(Cl)Cl)nc(C(C)C)n1 (stereo not drawn) | inactive: 3.8%
12 | CCOC(=O)Nc1ccc([As](=O)(O)O)c(O)c1 | inactive: -4.3%
13 | CC(C)NC(=O)NP(=O)(Oc1ccccc1)Oc1ccccc1 | inactive: 4.1%
14 | O=C(OC1CN2CCC1CC2)c1cccc2[nH]cnc12 (stereo not drawn) | inactive: -5.6%
15 | CCN(CC)C(=S)SC(NC=O)C(Cl)(Cl)Cl (stereo not drawn) | inactive: -15.6%
16 | O=[N+]([O-])c1cc([N+](=O)[O-])c(-c2ccn[nH]2)s1 | inactive: -24.9%
17 | ClCCSc1nnc(-c2cccnc2)o1 | inactive: 1.1%
18 | CC(C)c1ccc(OP(=O)(Nc2ccccn2)Oc2ccccc2F)cc1 (stereo not drawn) | inactive: 5.3%
19 | Cc1ccc(OP(=O)(Nc2ccc([N+](=O)[O-])cn2)Oc2ccc(C)cc2)cc1 | inactive: 1.7%
20 | Cc1ccc2nc3c(c(C)c2c1)CC(C(Cl)Cl)S3 (stereo not drawn) | inactive: 10.9%
21 | C[As](=O)(O)c1cccc(C(=O)O)c1 | inactive: 5.5%
22 | O=[As](O)(c1ccc(O)cc1)c1ccccc1O | inactive: -4.5%
23 | COc1cc(C(=O)NCC2(N3CCOCC3)CCCCC2)ccc1OCC(C)C | inactive: 5.5%
24 | COc1ccc(N/C(=N/P(=O)(N2CCOCC2)N2CCOCC2)N2CCOCC2)cc1 | inactive: 8.7%
25 | COc1ccc2nc(NP(=O)(c3ccccc3)c3ccccc3)sc2c1 | inactive: 4.8%
26 | COc1cc(I)ccc1[As](=O)(O)O | inactive: 9.2%

Row | Compound | inhibition
27 | Cc1c2c(nc3ccccc13)SC(C(Cl)Cl)C2 (stereo not drawn) | inactive: 24.6%
28 | O=C(OC1CN2CCC1CC2)C12CC3CC(CC(C3)C1)C2 (stereo not drawn) | inactive: 1.3%
29 | Cc1cc(=O)[nH]c(N[N+](=O)[O-])n1 | inactive: -17%
30 | COc1cc(C2NCCC3(OCCO3)C2(C)C)cc(OC)c1OC (stereo not drawn) | inactive: 14.3%
31 | CCOP(=O)(Nc1cccc2ccccc12)OCC | inactive: 2.9%
32 | Cc1ccc(NCCc2c([N+](=O)[O-])cc([N+](=O)[O-])cc2[N+](=O)[O-])cc1 | inactive: -35.4%
33 | CCCOP(=S)(Nc1nc(N)cc(=O)[nH]1)OCCC | inactive: -6.1%
34 | Cc1cccc(OCC(=O)OC2CN3CCC2CC3)c1 (stereo not drawn) | inactive: 3.2%
35 | O=[As](O)(c1cccc(O)c1)c1cccc(O)c1 | inactive: 11.2%
36 | O=C(OC1CN2CCC1CC2)c1ccc(Cl)cc1 (stereo not drawn) | inactive: 6.8%
37 | O=[As](O)(O)c1cccnc1 | inactive: -1%
38 | COc1cc(C(=O)NCC2(N3CCOCC3)CCCCC2)cc(Cl)c1OC(C)C | inactive: 4.8%
39 | CS(=O)(=O)c1ccc(Cl)c(NC(=O)COC(=O)C(O)(c2ccccc2)c2ccccc2)c1 | inactive: 11.2%
40 | N#CCCN(C(=O)COC(=O)C(O)(c1ccccc1)c1ccccc1)c1ccc(F)cc1 | inactive: -0.8%
41 | CN(C(=O)Cc1ccccc1)[C@@H]1CC[C@]2(CCCO2)C[C@H]1N1CCCC1 | inactive: 8.4%
42 | CCOP1(=S)c2c(C)nn(CCC#N)c2N=C(c2ccc(F)cc2)N1C (stereo not drawn) | inactive: 2.9%
43 | O=[N+]([O-])c1ccc2c(c1)nnn2O | inactive: -3%
44 | CN(C)C(=O)c1cc([N+](=O)[O-])cc2c1-c1c(cc([N+](=O)[O-])cc1[N+](=O)[O-])C2=O | inactive: -123%
45 | CN(C(=O)Cc1ccc(Cl)c(Cl)c1)[C@H]1CC[C@@]2(CCCO2)C[C@@H]1N1CCCC1 | inactive: 12.2%
46 | NC(=O)Nc1ccc([As](=O)(O)O)cc1 | inactive: -6.9%
47 | O=C(O)COc1ccc([As](=O)(O)O)cc1[N+](=O)[O-] | inactive: 5.6%
48 | Nc1ccccc1[As](=O)(O)c1ccccc1 | inactive: -9.3%
49 | CCOP1(=S)c2c(C)nn(CCC#N)c2N=C(c2ccccc2F)N1C (stereo not drawn) | inactive: 0.7%
50 | O=P(Nc1nccs1)(Oc1ccccc1)Oc1ccccc1 | inactive: -12.2%
51 | O=P(Nc1nccs1)(c1ccccc1)c1nc2ccccc2s1 (stereo not drawn) | inactive: -0.4%
52 | CS(=O)(=O)c1cc([N+](=O)[O-])c2no[n+]([O-])c2c1 | inactive: -42.6%

Row | Compound | inhibition
53 | Nc1cccc([As](=O)(O)c2ccccc2)c1 | inactive: -4.9%
54 | O=[As](O)(c1cccs1)c1cccs1 | inactive: -3.9%
55 | Cc1ccc(OCC(=O)OC2CN3CCC2CC3)cc1 (stereo not drawn) | inactive: 5.8%
56 | NS(=O)(=O)c1cccc(NC(=O)COC(=O)C(O)(c2ccccc2)c2ccccc2)c1 | inactive: 6.4%
57 | O=P1(Nc2ccc(Br)cn2)COc2ccccc2OC1 | inactive: -9.1%
58 | O=P1(Nc2ncccn2)COc2ccccc2OC1 | inactive: -13%
59 | CN(C)C1(CNC(=O)c2ccc(S(C)(=O)=O)cc2)CCCCC1 | inactive: -4.1%
60 | O=C(/C=C/c1ccccc1)OC1CN2CCC1CC2 (stereo not drawn) | inactive: 6%
61 | Cc1nn(-c2ccccc2)c2c1P(=O)(N1CCOCC1)N(C)C(c1ccccc1)=N2 (stereo not drawn) | inactive: 0.8%
62 | Cc1ccc(C(=O)OC2CN3CCC2CC3)cc1 (stereo not drawn) | inactive: 3.9%
63 | CC1CCC(C(C)C)C(OP(=O)(Nc2ccccn2)c2ccccc2)C1 (stereo not drawn) | inactive: -2.5%
64 | CN(C(=O)Cc1ccc(Cl)c(Cl)c1)[C@@H]1CCCC[C@H]1N1CCCC1 | inactive: 3.9%
65 | CC(C)/C=N\N=C(\N)N[N+](=O)[O-] | inactive: -10.5%
66 | O=[As](O)(c1ccccc1Br)c1ccccc1Br | inactive: -1.2%
67 | CC1(CBr)Cn2c(nc3ccccc3c2=O)S1 (stereo not drawn) | inactive: 3.4%
68 | COc1ccccc1CNC(=O)COC(=O)C(O)(c1ccccc1)c1ccccc1 | inactive: 0%
69 | Clc1n[nH]nc1-c1nn[nH][15n]1 | inactive: 2.9%
70 | CC(C)(C)C(=O)NC(Sc1ncccn1)C(Cl)(Cl)Cl (stereo not drawn) | inactive: -2.9%
71 | CCC1=CC2Cc3nc4ccc(Cl)cc4c(N)c3C(C1)C2 (stereo not drawn) | inactive: 10.7%
72 | O=P1(Nc2ccccn2)COc2ccccc2OC1 | inactive: -4.7%
73 | CCOP(=O)(NC(=NC(C)c1ccccc1)NC(C)c1ccccc1)OCC (stereo not drawn) | inactive: -0.9%
74 | CCOP(=O)(Nc1ccc(C)cn1)OCC | inactive: 8%
75 | CN(CCCl)Cc1cc(Cl)c(NC2=NCCN2)c(Cl)c1 | inactive: 19.4%
76 | c1nnnn1CCn1cnnn1 | inactive: 0.7%
77 | O=P(Nc1nccs1)(c1ccccc1)c1ccccc1 | inactive: 2.3%
78 | CC(C)C(=O)NC(Sc1ccccc1)C(Cl)(Cl)Cl (stereo not drawn) | inactive: -6.2%

Row | Compound | inhibition
79 | O=C(OC1CN2CCC1CC2)c1cccc(Cl)c1 (stereo not drawn) | inactive: -3.7%
80 | C(Cc1nn[nH]n1)Cc1nn[nH]n1 | inactive: 3.4%
81 | Nc1ccc([As](=O)(O)c2ccc([N+](=O)[O-])cc2)cc1 | inactive: -4.3%
82 | O=[As](O)(c1ccccc1)c1ccc(O)cc1 | inactive: -12.1%
83 | O=[N+]([O-])c1ncn(CCn2cnc([N+](=O)[O-])n2)n1 | inactive: 3%
84 | O=P(Nc1nc2ccccc2s1)(c1ccccc1)c1ccccc1 | inactive: 3.8%
85 | C[C@H]1OP(=O)(Oc2ccccc2)[C@H](O)[C@H](O)[C@H]1N=[N+]=[N-] (stereo partly drawn) | inactive: 5%
86 | CN(C)C1(CNC(=O)c2ccc(Cl)c(S(N)(=O)=O)c2)CCCCC1 | inactive: 6.7%
87 | O=P(Nc1ccccn1)(c1ccc(Br)cc1)c1ccc(Br)cc1 | inactive: 6.2%
88 | CC(NC(=O)COC(=O)C(O)(c1ccccc1)c1ccccc1)c1ccccc1 (stereo not drawn) | inactive: 3.7%
89 | Cc1ccccc1OP(=O)(Nc1ccccn1)Oc1ccccc1C | inactive: 5.5%
90 | CN(C)C(=O)Oc1noc2ccccc12 | inactive: -6.4%
91 | O=C(OC1CN2CCC1CC2)c1ccccc1 (stereo not drawn) | inactive: -4.3%
92 | CCC(=O)N1C2C3N(C(=O)CC)C1C1N(C(=O)CC)C(C(N1C(=O)CC)N3C(=O)CC)N2C(=O)CC | inactive: 2%
93 | COC(=O)c1cc2c(s1)N=C(c1ccccc1)N(C)P2(=O)N1CCOCC1 (stereo not drawn) | inactive: -1%
94 | Cc1ccc(OP(=O)(Nc2ccccn2)Oc2ccc(C)cc2)cc1 | inactive: 3.8%
95 | CC(=O)NC(SC(=S)N(CC(C)C)CC(C)C)C(Cl)(Cl)Cl (stereo not drawn) | inactive: -11.8%
96 | c1ccc(-c2nn[nH]n2)c(-c2nn[nH]n2)c1 | inactive: -18%
97 | CCOC(=O)NC(Sc1ccccc1)C(Cl)(Cl)Cl (stereo not drawn) | inactive: 6.8%
98 | Cc1ccc(NP(=O)(Oc2cccc(C)c2)Oc2cccc(C)c2)nc1 | inactive: -3.9%
99 | O=C(NC1CCS(=O)(=O)C1)NP(=S)(Oc1ccccc1)Oc1ccccc1 (stereo not drawn) | inactive: 1.3%
100 | CCNC(=S)/N=C(\N)N[N+](=O)[O-] | inactive: -3.1%
101 | CC(=O)Nc1ccc([As](=O)(O)O)c(O)c1 | inactive: -4.3%
102 | CC(=O)Nc1ccc(Oc2c([N+](=O)[O-])cc([N+](=O)[O-])cc2[N+](=O)[O-])cc1 | inactive: -1.3%
103 | Cc1ccccc1CN(C)C(=O)COC(=O)C(O)(c1ccccc1)c1ccccc1 | inactive: -2.6%

Source: PubChem BioAssay AID485273 (Sanford-Burnham Center for Chemical Genomics, 2010)
